For the assay, the system named is P. putida F1. The experiment in a line: Growth of P. putida F1 test tube cultures in MMC medium with ICR 191 (mutagenesis procedure 1). The class given is cell-based, Pseudomonas putida. The following applies: 16 to 18 hour incubation, 30° C., dark. The protocol: In procedure 1, cells were grown overnight in TSB at 30° C. and diluted 104 with phosphate buffer (100 mM, pH 7.2). Several 18×150 mm test tubes containing 3 ml of MMC medium plus 0 (control), 10, 20, 30, 40, 50, 75, or 100 mg/l ICR 191 were inoculated with 0.1 ml of the diluted inoculum. Test tube cultures were incubated in the dark at 30° C. with 220 RPM agitation. […] The cells from 20 mg/l ICR 191 culture were harvested by centrifugation, washed twice with phosphate buffer.

Structures are written as SMILES.

With `COc1ccc2nc3cc(Cl)ccc3c(NCCCNCCCl)c2c1` [ICR 191], the growth of culture result runs as follows: (10 mg/l ICR 191) “no detectable effect on growth”; (20 mg/l ICR 191) “approximately half that of the control”; (30 mg/l ICR 191) “trace of growth”; (ICR 191 concentrations above 30 mg/l) “completely inhibited growth”.

The values are drawn from patent US5858737A, “Conversion of indene to (1S)-amino-(2R)-indanol free of any stereoisomer, by combination of dioxygenase bioconversion and chemical steps” (Merck & Co., Inc., priority 1996, dated 1999).
